Consider one substance from PMC11593560, “Disruption of the Physical Interaction Between Carbonic Anhydrase IX and the Monocarboxylate Transporter 4 Impacts Lactate Transport in Breast Cancer Cells” (International Journal of Molecular Sciences, 2024).

Assay [1] concerns the target monocarboxylate transporter 4 (human (endogenous in MDA-MB-231)) (UniProt O15427). Kind of assay: proximity ligation; Duolink in situ PLA on hypoxic MDA-MB-231 cells, control medium without BGal2C; signals counted per nucleus.
The target of assay [2] is monocarboxylate transporter 1 (human (endogenous in MDA-MB-231 and MCF-7)) (UniProt P53985). Described as above.
Assay [3] has the same target. Kind of assay: proximity ligation; Duolink in situ PLA on hypoxic MCF-7 cells, control medium without BGal2C; signals counted per nucleus.

For the substance “carbonic anhydrase IX (from UniProt Q16790 38-459) (enzyme)”, the PLA signals/nucleus (signals/nucleus) in assay [1] stood at 4.6; in assay [2], 8.7; in assay [3], 10.9.
